One substance from patent US20110225663A1, “METHOD FOR PRODUCING EUKARYOTIC ORGANISMS WITH ENHANCED PATHOGEN RESISTANCE AND/OR RESISTANCE TO STRESS AND EUKARYOTIC TRANSGENIC ORGANISMS WITH ENHANCED PATHOGEN RESISTANCE AND/OR RESISTANCE TO STRESS” (WESTFAELISCHE WILHELMS-UNIVERSITAET MUENSTER, priority 2008, published 2011) can be followed below.

This data set concerns NC(=O)c1ccc[n+]([C@@H]2O[C@H](COP(=O)(O)OP(=O)(O)OC[C@H]3O[C@@H](n4cnc5c(N)ncnc54)[C@H](OP(=O)(O)O)[C@@H]3O)[C@@H](O)[C@H]2O)c1. In words: purified protein, by the assay type. Particulars: pH 8.0; 37.0 °C.

A word on the Km: it is the substrate concentration at which the rate is half of its maximum. For “Arabidopsis thaliana glucose-6-phosphate dehydrogenase isoform At1g24280 (P2 class), N-terminally truncated without transit peptide (cP2, 5′ delta 195 bp) (Arabidopsis thaliana)”, the Michaelis-Menten constant (Km) amounted to 2.4 µM.
